{"source": "patent US11339419B2", "about": "“Scavenger protein(s) for improved preservation of analyte detection sensor(s) and method(s) of use thereof” (Siemens Healthcare Diagnostics Inc., priority 2017, dated 2022)", "key": {"[1]": {"system": "creatininase (BBI Solutions)", "assay": "BBI Solutions Creatininase Enzyme Absorbance with BSA and Proclin 300", "type": "biochemical", "settings": "day 14; with Proclin 300", "description": "(§1) Absorbance measurements of the creatininase enzyme(s) were taken via spectrophotometer for each aqueous solution (represented as columns 1-5 in Tables 5-8—column 6 is a blank), the absorbance being directly proportional to the enzyme activity being measured-which for Tables 5-8 is creatininase enzyme activity. Accordingly, the higher the absorbance measurement, the higher the enzyme activity of creatininase. […] In addition, the mean values, standard deviations, and coefficients of variation are all presented for the enzyme activity/absorbance of each aqueous solution. All measurements were taken at 37° C."}, "creatininase (Toyobo)": {"system": "creatininase (Toyobo)", "assay": "Toyobo Creatininase Enzyme Absorbance with BSA and Proclin 300", "type": "biochemical", "settings": "day 14; with Proclin 300; absorbance increases as BSA goes from 5 to 25 to 50 mg/mL", "description": "as §1"}}}
{"substance": "bovine serum albumin [BSA]", "values": [{"measurement": "creatininase enzyme activity, effect of the presence of BSA", "setting": "[1]", "result": "unaffected"}, {"measurement": "creatininase enzyme activity", "setting": "creatininase (Toyobo)", "result": "remains low"}]}
